According to ChEMBL document CHEMBL1154371, “Cytotoxic xanthone constituents of the stem bark of Garcinia mangostana (mangosteen)” (J Nat Prod, 2009):

Biological target: T1, Nuclear factor NF-kappa-B p105 subunit (Homo sapiens, UniProt P19838)
T1 sequence (P19838 whole entry): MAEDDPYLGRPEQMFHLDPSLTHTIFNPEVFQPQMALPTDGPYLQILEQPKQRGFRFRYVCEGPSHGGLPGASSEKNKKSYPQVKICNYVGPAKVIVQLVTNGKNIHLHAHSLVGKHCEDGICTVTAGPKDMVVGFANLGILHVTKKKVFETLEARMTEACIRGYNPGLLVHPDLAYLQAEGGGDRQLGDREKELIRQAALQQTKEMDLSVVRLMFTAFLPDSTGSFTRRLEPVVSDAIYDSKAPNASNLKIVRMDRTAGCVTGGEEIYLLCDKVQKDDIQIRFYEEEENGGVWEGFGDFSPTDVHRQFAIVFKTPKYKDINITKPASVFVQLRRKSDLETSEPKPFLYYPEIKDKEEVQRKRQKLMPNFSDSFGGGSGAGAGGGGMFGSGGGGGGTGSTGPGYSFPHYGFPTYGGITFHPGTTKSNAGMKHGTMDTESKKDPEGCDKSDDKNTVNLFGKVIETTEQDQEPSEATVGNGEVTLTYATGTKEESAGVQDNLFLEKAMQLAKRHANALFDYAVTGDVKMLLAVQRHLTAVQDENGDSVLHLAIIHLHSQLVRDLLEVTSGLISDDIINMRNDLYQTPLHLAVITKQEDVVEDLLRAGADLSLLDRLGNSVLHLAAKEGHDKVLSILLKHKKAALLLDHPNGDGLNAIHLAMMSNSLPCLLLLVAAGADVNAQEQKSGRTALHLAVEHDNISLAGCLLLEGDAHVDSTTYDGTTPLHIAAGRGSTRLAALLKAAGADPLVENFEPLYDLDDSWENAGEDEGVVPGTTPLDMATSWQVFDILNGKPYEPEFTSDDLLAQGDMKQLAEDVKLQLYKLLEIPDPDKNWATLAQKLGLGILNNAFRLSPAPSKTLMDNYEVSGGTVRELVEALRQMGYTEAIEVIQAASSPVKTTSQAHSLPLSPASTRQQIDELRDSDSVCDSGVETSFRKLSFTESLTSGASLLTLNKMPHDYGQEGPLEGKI
Assay: Inhibition of p50 after 1 hr by ELISA

COc1ccc([C@@]23Oc4cc(OC)cc(OC)c4[C@]2(O)[C@H](O)[C@H](C(=O)N(C)C)[C@H]3c2ccccc2)cc1 [ROCAGLAMIDE]
IC50: 2000 nM
